The chains behind the UniProt entries cited, without tags or fusion partners.
UniProt P31645, whole entry: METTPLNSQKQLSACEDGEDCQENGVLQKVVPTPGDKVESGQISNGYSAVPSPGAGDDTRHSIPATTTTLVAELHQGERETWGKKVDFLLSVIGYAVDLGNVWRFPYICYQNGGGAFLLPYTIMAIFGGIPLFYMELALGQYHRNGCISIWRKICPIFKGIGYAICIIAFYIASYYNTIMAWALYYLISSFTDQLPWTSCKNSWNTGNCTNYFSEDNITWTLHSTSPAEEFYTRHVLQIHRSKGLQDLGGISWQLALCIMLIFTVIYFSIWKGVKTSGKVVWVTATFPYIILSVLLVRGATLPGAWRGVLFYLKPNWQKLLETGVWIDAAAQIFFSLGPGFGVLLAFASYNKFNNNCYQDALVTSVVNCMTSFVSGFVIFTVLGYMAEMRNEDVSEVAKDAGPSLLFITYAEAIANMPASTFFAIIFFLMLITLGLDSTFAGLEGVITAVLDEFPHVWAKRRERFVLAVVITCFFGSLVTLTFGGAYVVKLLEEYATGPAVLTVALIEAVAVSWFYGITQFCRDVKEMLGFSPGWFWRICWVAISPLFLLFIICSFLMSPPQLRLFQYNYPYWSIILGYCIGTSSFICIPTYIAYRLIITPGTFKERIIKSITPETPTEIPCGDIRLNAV

According to PMC2895766 (2010):

Target: human 5HT transporters [(h)SERT] (Homo sapiens, UniProt P31645)
Test: Inhibition of [3H]serotonin uptake in HEK293 cells expressing hSERT

How did the “monoamine uptake inhibition IC50 [3H]5HT” value turn out when `C[C@@H]1NC(C)(C)CO[C@@]1(O)c1cccc(Cl)c1` [(2S,3S)-4a, (2S,3S)-2-(3-Chlorophenyl)-3,5,5-trimethylmorpholin-2-ol] was run?
The value was “inactive”.
